Measured values: article PMC8291485, “Development of New Benzylpiperazine Derivatives as σ1 Receptor Ligands with in Vivo Antinociceptive and Anti-Allodynic Effects” (ACS Chemical Neuroscience, 2021)

System: evoked locomotor activity
Assay: Rotarod assay of evoked locomotor activity / sedation
Settings: C57BL/6J mice; 15 30 and 60 mg/kg i.p., U50,488 10 mg/kg i.p. (up to 60 min after administration)

In the case of “trans-(±)-3,4-dichloro-N-methyl-N-[2-(1-pyrrolidinyl)cyclohexyl]benzeneacetamide hydrochloride”, the “effect on evoked locomotor activity, rotarod (result in words)” value is reported as “significantly impaired evoked locomotor activity”.
